Data from publication PMC11094793, “Discovery of LLC0424 as a Potent and Selective in Vivo NSD2 PROTAC Degrader” (Journal of Medicinal Chemistry, 2024).

Legend:
NSD3 = biological target: T1, NSD3 (Homo sapiens, UniProt Q9BZ95); test: Selectivity immunoblotting in SEM cells: NSD3; format: cell-based; conditions: 2 μM, 8 h
T1 construct: endogenous in cells; host or cells: SEM
T1 sequence (Q9BZ95 1-1437): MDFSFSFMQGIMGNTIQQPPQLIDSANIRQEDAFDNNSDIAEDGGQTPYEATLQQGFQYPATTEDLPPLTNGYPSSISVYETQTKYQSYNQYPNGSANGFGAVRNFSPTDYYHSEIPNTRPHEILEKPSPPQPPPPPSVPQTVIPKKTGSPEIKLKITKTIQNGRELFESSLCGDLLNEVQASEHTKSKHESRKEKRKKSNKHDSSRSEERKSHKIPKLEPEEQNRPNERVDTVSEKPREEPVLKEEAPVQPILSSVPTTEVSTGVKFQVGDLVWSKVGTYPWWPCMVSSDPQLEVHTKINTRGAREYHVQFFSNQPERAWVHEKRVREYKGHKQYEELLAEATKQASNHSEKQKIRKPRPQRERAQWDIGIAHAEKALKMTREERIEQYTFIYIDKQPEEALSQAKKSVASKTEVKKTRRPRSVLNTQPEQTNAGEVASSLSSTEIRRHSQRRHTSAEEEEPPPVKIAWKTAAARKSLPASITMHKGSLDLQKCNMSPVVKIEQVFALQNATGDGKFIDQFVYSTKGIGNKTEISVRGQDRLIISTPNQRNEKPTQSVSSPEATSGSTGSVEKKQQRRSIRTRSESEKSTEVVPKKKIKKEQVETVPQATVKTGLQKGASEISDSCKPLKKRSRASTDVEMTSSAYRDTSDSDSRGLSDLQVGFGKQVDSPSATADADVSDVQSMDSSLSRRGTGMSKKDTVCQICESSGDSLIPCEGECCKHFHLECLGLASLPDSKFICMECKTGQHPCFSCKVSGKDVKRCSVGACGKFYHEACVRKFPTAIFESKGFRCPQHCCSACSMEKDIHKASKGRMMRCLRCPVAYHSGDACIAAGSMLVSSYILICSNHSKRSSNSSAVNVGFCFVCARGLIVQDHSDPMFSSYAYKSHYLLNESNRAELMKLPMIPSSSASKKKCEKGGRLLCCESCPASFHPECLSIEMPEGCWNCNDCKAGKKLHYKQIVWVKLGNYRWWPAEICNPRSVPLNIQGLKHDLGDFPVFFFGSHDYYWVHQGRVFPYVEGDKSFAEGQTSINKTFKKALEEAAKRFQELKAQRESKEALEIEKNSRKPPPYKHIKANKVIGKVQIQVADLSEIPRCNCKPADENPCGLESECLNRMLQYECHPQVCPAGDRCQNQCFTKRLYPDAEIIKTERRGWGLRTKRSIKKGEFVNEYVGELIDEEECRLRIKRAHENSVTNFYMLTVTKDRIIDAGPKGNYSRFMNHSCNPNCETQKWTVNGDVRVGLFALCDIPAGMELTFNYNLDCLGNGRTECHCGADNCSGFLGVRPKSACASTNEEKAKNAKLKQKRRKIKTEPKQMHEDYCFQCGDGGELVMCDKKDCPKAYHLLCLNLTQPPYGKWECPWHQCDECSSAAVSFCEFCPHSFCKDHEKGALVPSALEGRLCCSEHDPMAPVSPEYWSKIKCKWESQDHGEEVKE
Protocol: (§1) We conducted a global proteomic assay using tandem mass tags (TMT) labeled mass-spectrometry to unbiasedly quantify the protein change upon LLC0424 treatment in VCaP and RPMI-8402 cells. […] We further used SEM cell line to cross-validate the selectivity of LLC0424 for NSD2 over NSD1 and NSD3 as well as CRBN neo-substrates IKZF1, IKZF3, GSPT1, and CK-1α using immunoblotting. […] When we increased the treatment time of LLC0424 in SEM cells, we observed mild decrease of GSPT1 from 12 h (SI, Figure S3F).
After treatment, the cultured cells were collected and rinsed with phosphate-buffered saline (PBS) in room temperature. The cells were treated with RIPA buffers (ThermoFisher Scientific) supplemented with Halt Protease and Phosphatase Inhibitor Cocktail (ThermoFisher Scientific). After sonication and centrifugation, the total amount of protein in the cell lysates was measured by Pierce Bovine Serum Albumin Standard Pre-Diluted Set (ThermoFisher Scientific). After mixed with LDS-sample buffer (Invitrogen) supplemented with Sample Reducing Agent (Invitrogen) and heated in 70 °C for 10 min, equal amount of protein was loaded into NuPAGE 4–12%, Bis-Tris Protein Gel (ThermoFisher Scientific) or NuPAGE 3–8%, Tris-Acetate Protein Gel (ThermoFisher Scientific), and blotted with primary antibodies. […]

VCaP cells = test: TMT global proteomics in VCaP cells; format: cell-based, human; conditions: protein accession Q14204
Protocol: as §1
Figure 5 LLC0424 was a selective NSD2 degrader. (A) Unbiased global proteomics analysis of LLC0424 in VCaP cells after 6 h treatment of DMSO or 2 μM LLC0424. (B) Mass-spec quantification of NSD2 protein. (C) Heatmap for the level of PWWP-1 domain-containing proteins in VCaP cells treated with DMSO or 2 μM LLC0424. (D) Immunoblotting of NSD2, NSD1, NSD3, GSPT1, CK-1α, IKZF1, IKZF3, and H3 in SEM cells treated with 2 μM LLC0424 for various time points.
RPMI-8402 cells were plated at 10 × 10^6 cells per plate on 10 cm tissue culture plates overnight before treating with DMSO (control) or 2 μM LLC0424 with 3 replicates for each treatment. After 8 h, whole cell lysates were collected using RIPA buffer (ThermoFisher Scientific) and quantified using Pierce Bovine Serum Albumin Standard Pre-Diluted Set (ThermoFisher Scientific). […]

NSD3 protein level (NSD3): remained unchanged
Compound: O=C1CCC(N2C(=O)c3ccc(N4CCC(NC(=O)c5ccc(NC(=O)c6ccc(CN(C(=O)c7ccc8c(c7)OCC(=O)N8)C7CC7)cc6)cc5)CC4)cc3C2=O)C(=O)N1 (centres unmarked) [compound 10l, N-Cyclopropyl-N-(4-((4-((1-(2-(2,6-dioxopiperidin-3-yl)-1,3-dioxoisoindolin-5-yl)piperidin-4-yl)carbamoyl)phenyl)carbamoyl)benzyl)-3-oxo-3,4-dihydro-2H-benzo[b][1,4]oxazine-7-carboxamide]
Abundance Ratio (log2): (LLC0424) / (DMSO) (VCaP cells): 0.03
